Usually inhibition stands for the change of the read-out against control, counted positive when it falls.

Amino acid sequences for entries named in this document (tags omitted).
UniProt Q15139, whole entry: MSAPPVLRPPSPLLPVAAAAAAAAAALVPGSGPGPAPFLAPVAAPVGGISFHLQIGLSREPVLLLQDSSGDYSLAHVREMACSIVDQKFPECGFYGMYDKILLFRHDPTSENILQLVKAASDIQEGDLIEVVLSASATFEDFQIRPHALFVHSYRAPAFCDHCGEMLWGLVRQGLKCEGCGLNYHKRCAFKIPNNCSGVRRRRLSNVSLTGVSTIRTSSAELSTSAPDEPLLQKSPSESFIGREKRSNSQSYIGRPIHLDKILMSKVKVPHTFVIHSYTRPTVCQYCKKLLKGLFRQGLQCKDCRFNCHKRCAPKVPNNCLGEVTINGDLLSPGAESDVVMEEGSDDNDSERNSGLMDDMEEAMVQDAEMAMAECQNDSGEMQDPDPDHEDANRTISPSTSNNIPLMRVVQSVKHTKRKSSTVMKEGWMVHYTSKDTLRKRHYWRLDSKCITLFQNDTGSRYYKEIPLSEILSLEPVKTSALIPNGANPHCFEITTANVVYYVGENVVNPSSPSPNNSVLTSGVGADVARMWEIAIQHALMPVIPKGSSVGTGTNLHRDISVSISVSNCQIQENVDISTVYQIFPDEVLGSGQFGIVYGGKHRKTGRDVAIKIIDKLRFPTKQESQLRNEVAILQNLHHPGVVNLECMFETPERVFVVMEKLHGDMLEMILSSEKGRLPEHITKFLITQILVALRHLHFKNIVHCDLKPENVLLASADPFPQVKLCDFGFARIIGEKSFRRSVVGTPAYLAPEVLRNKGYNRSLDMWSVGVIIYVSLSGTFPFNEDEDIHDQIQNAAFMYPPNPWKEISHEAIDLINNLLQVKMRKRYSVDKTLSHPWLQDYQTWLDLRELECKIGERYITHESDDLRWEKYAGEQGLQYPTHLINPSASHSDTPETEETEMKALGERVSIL

Molecules are shown by their SMILES. Only a part is listed here, and it is no random draw. Some tests of the compounds listed are not included; inactive here does not mean inactive elsewhere. Activity calls are given as the source filed them. Rule as the data show it: active = inhibition above about 50%; inactive = the rest.

The target of the experiment is Serine/threonine-protein kinase D1 (Homo sapiens) (UniProt Q15139). Briefly: protein kinase D1 activity blockers – biochemical, fluorescence polarization (AID 797). Particulars: PKD1 kinase fluorescence polarization assay; hits give high values; concentration not given here. (In general: In fluorescence polarisation assays a small probe gives low polarisation when free and higher when bound to something large.)
For the molecule `COc1cccc(C(=O)NCC2(N3CCCCC3)CCCCC2)c1`, the inhibition is inactive: -1.78%.

With `CN(C)c1cccc(C(=O)NCC2(N(C)C)CCCCC2)c1`, the inhibition is inactive: 5.25%.

Consider `O=C(OC1CN2CCC1CC2)C(CO)(c1ccccc1)c1ccccc1` (centres undefined), for which the inhibition is inactive: 0.9%.

Regarding `CC(C)N1C(=O)CC2(CCN(CCOC(=O)C(O)(c3ccccc3)c3ccccc3)CC2)C1=O`, the inhibition is inactive: -7.31%.

For the molecule `O=C(NCC1(N2CCCCC2)CCCCC1)c1cc([N+](=O)[O-])ccc1Cl`, the inhibition was inactive: -0.21%.

For `CCN1CCCC(OC(=O)C2(O)c3ccccc3C=Cc3ccccc32)C1` (centres undefined), the inhibition was inactive: 9.67%.

For `C=CCN1CCN(CCOC(=O)C(O)(c2ccccc2)c2ccccc2)CC1`, the inhibition is inactive: -2.52%.

`Cc1ccccc1C(=O)NCC1(N2CCCCC2)CCCCC1`: the inhibition is inactive: -4.2%.

Turning to `CN(C)C1CCCC1OC(=O)C(O)(c1ccccc1)c1ccccc1` (centres undefined), the inhibition is inactive: -2.41%.

The values are drawn from PubChem BioAssay AID797 (University of Pittsburgh Molecular Library Screening Center, 2007).
